# Assay: in vivo
# Settings: mouse
smiles,measurement,setting,value
"Cc1nc(Cn2cnc3c2c(=O)n(C)c(=O)n3C)no1 [Example 1, 7-[(5-methyl-1,2,4-oxadiazol-3-yl)-methyl]-theophylline]",LD50,iv,416 mg/kg
same,LD50,po,1430 mg/kg
